The target of one assay is Adenosine receptor A1 (Homo sapiens, UniProt P30542). As to the kind of experiment: Inhibition of [3H]DPCPX binding to human adenosine A1 receptor expressed in CHO cells. The assay is classed as cell-based.
Another assay concerns the target Adenosine receptor A2a (Homo sapiens, UniProt P29274). Put plainly: Inhibition of [3H]-ZM 241385 binding to human adenosine A2a receptor expressed in CHO cells. The class given is cell-based.

Amino acid sequences for entries named in this document (tags omitted).
UniProt P30542, whole entry: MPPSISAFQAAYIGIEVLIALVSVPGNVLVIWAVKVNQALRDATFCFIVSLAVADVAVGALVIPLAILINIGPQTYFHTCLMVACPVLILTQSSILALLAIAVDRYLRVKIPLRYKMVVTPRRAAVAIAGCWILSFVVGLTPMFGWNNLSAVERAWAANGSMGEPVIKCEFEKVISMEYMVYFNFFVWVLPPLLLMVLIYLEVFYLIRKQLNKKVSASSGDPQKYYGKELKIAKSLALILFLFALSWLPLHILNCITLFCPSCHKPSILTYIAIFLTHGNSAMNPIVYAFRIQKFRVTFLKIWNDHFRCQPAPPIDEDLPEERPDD

In general, Ki refers to a dissociation constant, usually derived from enzyme kinetics or from competition with a known ligand. Low readings indicate tighter binding, high ones weaker binding.

Bounds are passed on as bounds.

For `CCCn1c(=O)c2c(nc3n2CC(CC)=C3)n(Cc2ccccc2)c1=O`, the Ki on Adenosine receptor A1 and on Adenosine receptor A2a was greater than 1 µM in each case.
`CCCn1c(=O)c2c(nc3[nH]c(C)cn32)n(Cc2ccccc2)c1=O`: the inhibition constant (Ki) on Adenosine receptor A1 and at Adenosine receptor A2a was greater than 1 µM each time.

Values taken from ChEMBL document CHEMBL1140322, “New pyrrolo[2,1-f]purine-2,4-dione and imidazo[2,1-f]purine-2,4-dione derivatives as potent and selective human A3 adenosine receptor antagonists” (J Med Chem, 2005).
